Source: ChEMBL document CHEMBL1148282, “A novel series of piperidin-4-yl-1,3-dihydroindol-2-ones as agonist and antagonist ligands at the nociceptin receptor” (2004)

By UniProt entry, the sequences of proteins in these tests, tags left out.
UniProt P41143, whole entry: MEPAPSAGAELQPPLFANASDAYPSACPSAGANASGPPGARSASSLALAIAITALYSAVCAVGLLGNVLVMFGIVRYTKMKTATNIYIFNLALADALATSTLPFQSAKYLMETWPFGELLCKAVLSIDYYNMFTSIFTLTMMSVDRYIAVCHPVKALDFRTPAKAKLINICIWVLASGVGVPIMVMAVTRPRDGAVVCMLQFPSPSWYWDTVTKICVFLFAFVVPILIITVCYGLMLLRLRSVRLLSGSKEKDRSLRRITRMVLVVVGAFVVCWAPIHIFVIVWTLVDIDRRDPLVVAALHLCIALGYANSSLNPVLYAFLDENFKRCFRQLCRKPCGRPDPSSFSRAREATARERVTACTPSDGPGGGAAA
UniProt P41146, whole entry: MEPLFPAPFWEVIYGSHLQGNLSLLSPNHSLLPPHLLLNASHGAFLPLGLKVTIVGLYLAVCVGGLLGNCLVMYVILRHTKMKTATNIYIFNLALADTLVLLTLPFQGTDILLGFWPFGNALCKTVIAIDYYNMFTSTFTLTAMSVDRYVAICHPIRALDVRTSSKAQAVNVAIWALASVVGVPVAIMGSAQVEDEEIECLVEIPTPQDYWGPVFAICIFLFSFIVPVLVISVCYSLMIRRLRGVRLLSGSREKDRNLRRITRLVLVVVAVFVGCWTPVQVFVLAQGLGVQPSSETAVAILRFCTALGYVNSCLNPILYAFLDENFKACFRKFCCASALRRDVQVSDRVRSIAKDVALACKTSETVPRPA
UniProt P35372, whole entry: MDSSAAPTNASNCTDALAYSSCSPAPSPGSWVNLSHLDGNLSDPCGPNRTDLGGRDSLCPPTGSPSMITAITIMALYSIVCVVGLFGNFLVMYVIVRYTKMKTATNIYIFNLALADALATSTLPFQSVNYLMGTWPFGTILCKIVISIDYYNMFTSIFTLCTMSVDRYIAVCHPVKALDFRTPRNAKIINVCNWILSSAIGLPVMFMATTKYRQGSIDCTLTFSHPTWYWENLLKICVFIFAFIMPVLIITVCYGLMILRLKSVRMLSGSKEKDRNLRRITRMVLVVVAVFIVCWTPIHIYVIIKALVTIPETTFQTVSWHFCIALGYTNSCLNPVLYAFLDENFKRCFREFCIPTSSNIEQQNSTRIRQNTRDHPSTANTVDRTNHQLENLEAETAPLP
UniProt P41145, whole entry: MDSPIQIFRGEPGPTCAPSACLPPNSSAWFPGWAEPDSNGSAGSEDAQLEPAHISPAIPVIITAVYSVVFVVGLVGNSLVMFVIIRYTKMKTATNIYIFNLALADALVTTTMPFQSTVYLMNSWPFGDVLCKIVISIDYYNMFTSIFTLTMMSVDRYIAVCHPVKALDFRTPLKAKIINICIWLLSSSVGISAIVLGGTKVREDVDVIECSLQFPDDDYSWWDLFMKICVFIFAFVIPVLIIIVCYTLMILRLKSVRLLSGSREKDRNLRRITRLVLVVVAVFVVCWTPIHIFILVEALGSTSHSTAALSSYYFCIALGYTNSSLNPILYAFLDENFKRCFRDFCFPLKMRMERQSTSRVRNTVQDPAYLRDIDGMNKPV

Assays:
[1] = biological target: Delta-type opioid receptor (Homo sapiens, UniProt P41143); assay: Binding affinity against human opioid receptor delta 1 transfected on CHO cells was determined using [3H]Cl-DPDPE
Nociceptin receptor [2] = biological target: T1, Nociceptin receptor (Homo sapiens, UniProt P41146); assay: Concentration required for stimulation of [35S]GTP-gamma-S, binding to human Nociceptin receptor in cell membranes
Nociceptin receptor [3] = biological target: T1, Nociceptin receptor; assay: Concentration required for stimulation of [35S]GTP-gamma-S, binding NOP receptor in cell membranes
Mu-type opioid receptor = Mu-type opioid receptor (Homo sapiens, UniProt P35372); assay: Binding affinity against human Opioid receptor mu 1 on CHO cell membranes was determined by [3H]DAMGO displacement.
[4] = biological target: Kappa-type opioid receptor (Homo sapiens, UniProt P41145); assay: Binding affinity against human Opioid receptor kappa 1 on CHO cell membranes by [3H]U-69593 displacement.
Nociceptin receptor [5] = biological target: T1, Nociceptin receptor; assay: Binding affinity against human Nociceptin receptor on CHO cell membranes by [3H]N/OFQ displacement.

In the case of `O=C1Cc2ccccc2N1C1CCN(C2C3CCCC2CCC3)CC1` (configuration not stated), the Ki [1] is reported as > 10000 nM.
`CC1(C)C2CCC(CN3CCC(N4C(=O)Cc5ccccc54)CC3)C1C2` (configuration not stated) was tested, and the EC50 (Nociceptin receptor [2]) was > 10000 nM.
In the case of `CC(c1ccc2c(c1)Cc1ccccc1-2)N1CCC(N2C(=O)Cc3ccccc32)CC1` (configuration not stated), the EC50 (Nociceptin receptor [2]) is reported as > 10000 nM.
`O=C1Cc2ccccc2N1C1CCN(CC2CCCCCCC2)CC1` was tested, and the Ki [1] was > 10000 nM and the EC50 (Nociceptin receptor [3]) was > 10000 nM.
`CC(C)[C@H]1CC[C@H](N2CCC(N3C(=O)Cc4ccccc43)CC2)CC1` was tested, and the Ki (Mu-type opioid receptor) was 22.4 nM, the Ki [4] was 369 nM and the EC50 (Nociceptin receptor [2]) was 117 nM. It also gave a Ki (Nociceptin receptor [5]) of 71.2 nM.
In the case of `CC(C)[C@H]1CC[C@@H](N2CCC(N3C(=O)Cc4ccccc43)CC2)CC1`, the Ki (Mu-type opioid receptor) is reported as 8 nM, the Ki [4] is reported as 148 nM and the EC50 (Nociceptin receptor [2]) is reported as 26.3 nM. For the same molecule, the Ki (Nociceptin receptor [5]) was 3.96 nM.
`O=C1Cc2ccccc2N1C1CCN(C2CCC3CCCC[C@@H]3C2)CC1` (some centres not stated) was tested, and the Ki (Mu-type opioid receptor) was 16.4 nM, the Ki [4] was 137 nM and the EC50 (Nociceptin receptor [2]) was 74.9 nM. For the same molecule, the Ki (Nociceptin receptor [5]) was 4.67 nM.
